{
  "source": "patent US20250305953A1",
  "about": "“LIGHT-EMITTING RADICAL CATION PROBE IN SITU GENERATED BY ACID INDUCTION, AND PREPARATION THEREFOR AND APPLICATION THEREOF” (SOUTH CHINA UNIVERSITY OF TECHNOLOGY, priority 2022, published 2025)",
  "key": {"[1]": {"description": "30 μL of DMSO stock solution (200 mM) of the compound P6 (4-(piperidine-1-methylene)-2,5-dimethyl-3-hydroxymethylene-^1H-pyrrole) was added to 2970 μL of the acidic buffer solution (pH=2.0-3.0).\nAfter being mixed well, tests of the time-dependent ultraviolet-visible absorption spectrum and fluorescence spectrum were performed (2 h).", "remark": "listed apart in the source"}, "[2]": {"settings": "pH 2.0, 2 h, excitation 600 nm"}, "[3]": {"assay": "not given", "remark": "listed apart in the source"}, "[4]": {"settings": "2 hours"}, "[5]": {"assay": "In vivo imaging with laparotomy", "set-up": "species or system Balb/c nude mice", "settings": "opened abdomen, gavage of 1.5 mg in 70 μL water, imaged until 120 min", "source_text": "The mice were anesthetized beforehand, and the gastrointestinal tract was then exposed by a single incision in the abdomen of the mice."}, "[6]": {"settings": "glycerol content increased from 0% to 90%, 2 mM, emission 680 nm"}},
  "note": "Read-outs that look alike come from different tables or passages of the source.",
  "data": [
    {"molecule": "COc1ccc(-n2c(C)cc(CO)c2C)cc1", "note": "[P7, 1-(4-methoxyphenyl)-2,5-dimethyl-3-hydroxymethylene-^1H-pyrrole]", "values": [
      {"measurement": "gastrointestinal imaging effect", "setting": "compared with P3^⋅+", "result": "not as good as that of P3^⋅+"},
      {"measurement": "time for conversion into the radical cation", "setting": "[1]; acidic buffer solution pH=2.0-3.0, atmosphere of air", "result": "≤ 30", "unit": "min"}
    ]},
    {"molecule": "Cc1cc(CO)c(C)n1-c1ccccc1", "note": "[P3, 2,5-dimethyl-3-hydroxymethylene-1-phenyl-^1H-pyrrole]", "values": [
      {"measurement": "effect of interferents on fluorescence", "setting": "[2]; metal ions, common anti-oxidizing agents and carbohydrates", "result": "would not affect"},
      {"measurement": "effect of interferents on fluorescence", "setting": "[2]; some proteins", "result": "significantly increased"},
      {"measurement": "fluorescence signal in the stomach", "setting": "10 min after gavage of 1.5 mg in 70 μL water, 590 nm/700 nm", "result": "obvious near-infrared fluorescence signal"},
      {"measurement": "fluorescence signal in the intestinal region", "setting": "180 min after gavage of 1.5 mg in 70 μL water, 590 nm/700 nm", "result": "obvious near-infrared fluorescence signal"},
      {"measurement": "time for gastric emptying", "setting": "[3]; rise paste group (1.5 mg in 150 μL)", "result": "> 180", "unit": "min"},
      {"measurement": "attenuation of gastric fluorescence signal", "setting": "[3]; rise paste group (1.5 mg in 150 μL), within 180 min", "result": "no obvious attenuation"},
      {"measurement": "time at which the stomach was emptied", "setting": "[3]; water group (1.5 mg in 70 μL)", "result": 180, "unit": "min"},
      {"measurement": "fluorescence signal in the intestinal tract", "setting": "[3]; water group (1.5 mg in 70 μL), 180 min", "result": "only a weak fluorescence signal"},
      {"measurement": "in vivo fluorescence signal", "setting": "[4]; anti-acid group: sodium bicarbonate tablet 250 mg kg^-1 oral before P3", "result": "not any fluorescence signal"},
      {"measurement": "in vivo fluorescence signal", "setting": "[4]; gavage in acidic buffer solution (200 μL, pH 2.0)", "result": "a fluorescence signal can be generated"},
      {"measurement": "in vivo fluorescence signal", "setting": "[4]; gavage in neutral buffer solution (200 μL, pH 7.0)", "result": "not any signal"},
      {"measurement": "in vivo fluorescence signal", "setting": "[4]; normal group: normal saline 1 h before P3", "result": "strong fluorescence signal"},
      {"measurement": "intestinal fluorescence signal", "setting": "[5]", "result": "increases with time"},
      {"measurement": "time of strongest fluorescence signal in the stomach", "setting": "[5]", "result": 20, "unit": "min"},
      {"measurement": "fluorescence lifetime (fitting value)", "setting": "[6]", "result": "gradually increased"},
      {"measurement": "ratio of relative fluorescence intensity (I/I0)", "setting": "[6]; excitation 600 nm", "result": "gradually increased"},
      {"measurement": "absorption peak", "setting": "[1]; acidic buffer solution pH 2.0", "result": 600, "unit": "nm"},
      {"measurement": "fluorescence emission peak", "setting": "[1]; acidic buffer solution pH 2.0", "result": 680, "unit": "nm"},
      {"measurement": "time for conversion into the radical cation", "setting": "[1]; acidic buffer solution pH 2.0, air, seen from absorption peak (570 nm converted into 600 nm)", "result": "≤ 5", "unit": "min"},
      {"measurement": "conversion into the radical cation", "setting": "[1]; acidic buffer solution pH=2.0-2.6, atmosphere of air", "result": "rapidly converted"}
    ]}
  ]
}
